Experimental data reported in patent US11608331B2 (priority 2021, dated 2023).

Tests used:
SARS-CoV-2 PLpro = SARS-CoV-2 PLpro (Severe acute respiratory syndrome coronavirus 2, UniProt P0DTD1); assay: Papain-like protease (PLpro) assay; assay type: biochemical; details: screening; mean±SEM of 3 replicas
SARS-CoV-2 Mpro = SARS-CoV-2 Mpro (Severe acute respiratory syndrome coronavirus 2, UniProt P0DTD1); assay: Main protease (Mpro) assay, 3CL Protease assay kit; assay type: biochemical; details: read-out: inhibition activity against Mpro enzyme (inhibition percentage)

N=C(N/N=C/c1ccccc1O)c1nonc1NCNc1nonc1C(=N)N/N=C/c1ccccc1O [Compound 13]
inhibition activity against SARS-CoV-2 PLpro (SARS-CoV-2 PLpro): 80% | inhibition at 100 µg/mL (SARS-CoV-2 Mpro): 69.8%
